Laboratory results published in publication PMC7793522.

Target: EBV peptide on HLA-A*02:01 (human)
Assay: data from [105]; method not given; soluble, other

Substance AS01 has a Kd of 8.1 µM.
